Columns and labels:
Carbonic anhydrase 2 = Carbonic anhydrase 2 (Homo sapiens, UniProt P00918)
Carbonic anhydrase 9 = Carbonic anhydrase 9 (Homo sapiens, UniProt Q16790); experiment: Inhibition of carbonic anhydrase 9 (unknown origin) preincubated for 15 mins by stopped flow CO2 hydration assay
Carbonic anhydrase 12 = Carbonic anhydrase 12 (Homo sapiens, UniProt O43570)
Carbonic anhydrase 1 = Carbonic anhydrase 1 (Homo sapiens, UniProt P00915)

Chains of the proteins cited; added tags and fusions are not shown. Residues count along the entry.
UniProt O43570, 25-354 limits assumed: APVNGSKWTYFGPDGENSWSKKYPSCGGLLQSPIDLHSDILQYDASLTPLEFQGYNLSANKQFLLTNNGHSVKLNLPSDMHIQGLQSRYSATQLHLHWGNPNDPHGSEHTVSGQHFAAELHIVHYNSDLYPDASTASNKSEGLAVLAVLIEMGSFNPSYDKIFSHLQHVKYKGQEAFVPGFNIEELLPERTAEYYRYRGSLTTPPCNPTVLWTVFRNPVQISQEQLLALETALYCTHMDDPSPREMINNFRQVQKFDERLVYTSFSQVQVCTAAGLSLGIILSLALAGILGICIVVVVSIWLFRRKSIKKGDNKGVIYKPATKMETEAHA
UniProt P00915, 2-261 limits assumed: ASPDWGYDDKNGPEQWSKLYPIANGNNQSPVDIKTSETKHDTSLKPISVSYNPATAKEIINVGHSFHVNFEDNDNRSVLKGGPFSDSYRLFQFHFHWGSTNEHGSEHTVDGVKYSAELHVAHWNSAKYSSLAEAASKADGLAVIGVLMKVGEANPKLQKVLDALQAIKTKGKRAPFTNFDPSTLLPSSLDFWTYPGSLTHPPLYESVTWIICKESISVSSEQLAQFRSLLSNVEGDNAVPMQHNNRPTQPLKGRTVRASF

## NS(=O)(=O)c1cc([N+](=O)[O-])c(O)c([N+](=O)[O-])c1
Carbonic anhydrase 2
  Ki: 180 nM
Carbonic anhydrase 9
  Ki: 100 nM
Carbonic anhydrase 12
  Ki: 80 nM
Carbonic anhydrase 1
  Ki: 4350 nM

Source: ChEMBL document CHEMBL4261658, “4-Hydroxy-3-nitro-5-ureido-benzenesulfonamides Selectively Target the Tumor-Associated Carbonic Anhydrase Isoforms IX and XII Showing Hypoxia-Enhanced Antiproliferative Profiles” (J Med Chem, 2018)
